The assay addresses T1, inducible NO-synthase (NO-synthase 2) (Homo sapiens, UniProt P35228).
T1 construct: positive control (induction of the enzyme): mixtures of γ-interferon (1000 U/ml) and interleukin-1β (100 U/ml); endogenous in cells
Briefly: Activity on inducible NO-synthase (test of Heck et al.): nitrite/nitrate decrease after stimulation of NO-synthase 2. Particulars: control compound at 200 μM. In kind it is cell-based.

Sequences of proteins named here, by UniProt entry; tags and fusion partners are left off.
UniProt P35228, whole entry, species assumed: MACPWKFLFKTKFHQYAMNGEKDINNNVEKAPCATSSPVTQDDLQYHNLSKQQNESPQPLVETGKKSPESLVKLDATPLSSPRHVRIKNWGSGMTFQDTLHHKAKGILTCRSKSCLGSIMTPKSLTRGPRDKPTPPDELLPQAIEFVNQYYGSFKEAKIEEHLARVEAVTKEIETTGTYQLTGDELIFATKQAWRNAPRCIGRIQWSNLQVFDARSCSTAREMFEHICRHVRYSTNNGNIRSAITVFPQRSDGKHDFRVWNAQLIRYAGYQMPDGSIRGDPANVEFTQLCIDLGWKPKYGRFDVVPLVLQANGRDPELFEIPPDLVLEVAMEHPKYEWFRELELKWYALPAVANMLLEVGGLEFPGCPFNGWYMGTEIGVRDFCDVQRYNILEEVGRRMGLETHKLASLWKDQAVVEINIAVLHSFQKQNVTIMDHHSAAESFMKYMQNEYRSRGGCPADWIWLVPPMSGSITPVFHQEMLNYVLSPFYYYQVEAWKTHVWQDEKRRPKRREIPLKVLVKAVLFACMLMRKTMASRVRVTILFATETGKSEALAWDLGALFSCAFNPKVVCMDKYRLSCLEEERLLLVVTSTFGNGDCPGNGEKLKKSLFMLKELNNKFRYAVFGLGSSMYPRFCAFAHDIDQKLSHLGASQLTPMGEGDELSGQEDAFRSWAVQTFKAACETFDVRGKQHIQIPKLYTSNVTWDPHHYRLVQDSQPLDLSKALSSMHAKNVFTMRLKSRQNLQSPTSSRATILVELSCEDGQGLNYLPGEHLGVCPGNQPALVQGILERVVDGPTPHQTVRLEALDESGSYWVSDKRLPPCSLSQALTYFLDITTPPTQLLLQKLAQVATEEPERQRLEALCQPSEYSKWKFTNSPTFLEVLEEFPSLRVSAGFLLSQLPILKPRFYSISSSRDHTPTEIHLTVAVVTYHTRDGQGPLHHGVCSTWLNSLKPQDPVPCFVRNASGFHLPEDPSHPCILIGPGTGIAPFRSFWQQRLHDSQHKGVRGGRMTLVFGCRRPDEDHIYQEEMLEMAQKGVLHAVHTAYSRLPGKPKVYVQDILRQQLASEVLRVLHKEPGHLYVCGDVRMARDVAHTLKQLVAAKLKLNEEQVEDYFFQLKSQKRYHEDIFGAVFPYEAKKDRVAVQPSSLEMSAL

`CNC(=N)NCCC[C@H](N)C(=O)O` [B, N^G-monomethyl-L-arginine]: the % inhibition (in general, the percentage by which the read-out fell short of the control) came out at 100%.
In the case of `CNC(=N)NCCC[C@H](N)C(=O)O` [C, N^G-monomethyl-L-arginine (D form)] it was 0%.

The record behind these values is patent US7192616B2, “Plant extract of the Olea europaea species as NO-synthase inhibitor and uses” (L'Oreal, priority 2000, dated 2007).
